In the experiment the target is MAO-B (Rattus norvegicus, UniProt P19643). Kind of experiment: Inhibition of MAO activity in vitro, rat brain homogenate, PEA substrate. The note with it: read-out: MAO-B Inhibition In vitro IC50, PEA 50µM, tested form: HCl.

By UniProt entry, the sequences of proteins in these tests, tags left out.
UniProt P19643, whole entry: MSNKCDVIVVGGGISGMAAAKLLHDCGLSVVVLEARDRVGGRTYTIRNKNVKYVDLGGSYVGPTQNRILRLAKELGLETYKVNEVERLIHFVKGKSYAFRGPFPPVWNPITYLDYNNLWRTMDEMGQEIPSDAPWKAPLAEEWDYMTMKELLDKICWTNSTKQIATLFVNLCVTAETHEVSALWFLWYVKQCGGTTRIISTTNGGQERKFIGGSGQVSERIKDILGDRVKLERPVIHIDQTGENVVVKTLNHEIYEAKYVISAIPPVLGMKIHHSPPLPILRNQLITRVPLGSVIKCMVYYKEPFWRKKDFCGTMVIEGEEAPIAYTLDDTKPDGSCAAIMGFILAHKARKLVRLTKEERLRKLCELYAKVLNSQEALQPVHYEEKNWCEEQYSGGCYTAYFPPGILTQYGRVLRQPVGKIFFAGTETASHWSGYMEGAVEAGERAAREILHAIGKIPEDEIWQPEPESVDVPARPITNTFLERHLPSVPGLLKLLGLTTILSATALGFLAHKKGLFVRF

Molecules are shown by their SMILES.

The term IC50 denotes the concentration that gives 50% inhibition.

For the compound `CCCN(C)C(=O)Oc1cccc(CCN)c1`, the concentration for half-maximal inhibition (IC50) was above 1000 µM.

These data come from patent publication EP0951284B1, “[…] DERIVATIVES” (priority 1996, dated 1998).
